In PubChem BioAssay AID1715 (Vanderbilt High Throughput Screening Facility, 2009):
Out of some 3,700 compounds screened, about 870 (24%) were called active. Listed are the inconclusive results; actives and inactives stand elsewhere.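 How the source made its calls: active means thallium flux slope more than 3 SD above or below the plate's solvent-only control mean, mostly below; inconclusive means the two repeat wells disagreed; inactive means no significant shift from solvent-only controls.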

Amino acid sequences for entries named in this document (tags omitted). A change or cut given only in a name is not applied to a line headed by its entry.
UniProt Q9H2X9: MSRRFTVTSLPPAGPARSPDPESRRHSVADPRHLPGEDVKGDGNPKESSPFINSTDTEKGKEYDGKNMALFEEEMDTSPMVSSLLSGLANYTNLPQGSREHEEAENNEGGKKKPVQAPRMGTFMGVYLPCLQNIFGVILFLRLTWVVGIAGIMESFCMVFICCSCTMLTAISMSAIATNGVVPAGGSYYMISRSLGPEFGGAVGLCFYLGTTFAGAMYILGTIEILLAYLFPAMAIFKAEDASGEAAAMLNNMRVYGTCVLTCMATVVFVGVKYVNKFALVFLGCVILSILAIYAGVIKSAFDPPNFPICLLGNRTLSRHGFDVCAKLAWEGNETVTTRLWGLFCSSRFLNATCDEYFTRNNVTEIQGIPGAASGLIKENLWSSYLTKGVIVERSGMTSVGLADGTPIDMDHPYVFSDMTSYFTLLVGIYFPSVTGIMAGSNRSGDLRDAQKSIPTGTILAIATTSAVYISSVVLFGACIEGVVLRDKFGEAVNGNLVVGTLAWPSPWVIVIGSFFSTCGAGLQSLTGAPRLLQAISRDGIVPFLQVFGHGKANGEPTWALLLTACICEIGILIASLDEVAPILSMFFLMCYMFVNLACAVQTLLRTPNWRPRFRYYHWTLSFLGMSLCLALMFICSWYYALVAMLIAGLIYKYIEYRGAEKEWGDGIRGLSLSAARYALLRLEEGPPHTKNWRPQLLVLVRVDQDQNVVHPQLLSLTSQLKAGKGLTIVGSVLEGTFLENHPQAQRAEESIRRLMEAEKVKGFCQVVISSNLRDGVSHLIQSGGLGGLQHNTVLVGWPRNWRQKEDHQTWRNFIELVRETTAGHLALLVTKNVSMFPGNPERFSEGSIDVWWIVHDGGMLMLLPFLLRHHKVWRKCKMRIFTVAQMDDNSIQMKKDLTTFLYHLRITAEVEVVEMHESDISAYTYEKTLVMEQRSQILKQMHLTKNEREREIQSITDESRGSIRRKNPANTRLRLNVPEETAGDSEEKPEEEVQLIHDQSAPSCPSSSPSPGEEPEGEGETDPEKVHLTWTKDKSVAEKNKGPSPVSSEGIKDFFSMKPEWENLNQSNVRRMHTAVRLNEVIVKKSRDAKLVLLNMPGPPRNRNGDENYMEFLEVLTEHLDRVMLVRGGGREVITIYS

Target: Solute carrier family 12 member 5 (Homo sapiens) (UniProt Q9H2X9)
Assay: KCC2 modulators without ouabain present, confirmation, cell-based, HEK293 KCC2, thallium flux, FluoZin2, secondary assay 2 (AID 1715);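 further: raw slope with 0.1% DMSO as baseline and bumetanide as block control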
Details: HEK293-KCC2, thallium flux FluoZin2 fluorescence; at 10 µM; actives lie on both sides; F/F0 rise rate, 10–20 s post-thallium

| SMILES | normalized thallium flux |
| --- | --- |
| O=P(Nc1nc2ccc(Cl)cc2s1)(c1ccccc1)c1ccccc1 | inconclusive: 0.0348 |
